Measured values as given in PMC10873626, “Acceleration of infectious disease drug discovery and development using a humanized model of drug metabolism” (Proceedings of the National Academy of Sciences of the …, 2024).

Assays:
[1] = mouse, microsomes
[2] = mouse, microsomes; remark: listed apart in the source
[3] = mouse, microsomes; remark: listed apart in the source

CLint, WT [1]: 0.5 mL/min/g liver
CLint, CypC4KO [2]: 0.5 mL/min/g liver
CLint, 8HUM [3]: 0.5 mL/min/g liver
Compound: CO[C@H]1/C=C/O[C@@]2(C)Oc3c(C)c(O)c4c(O)c(c(/C=N/N5CCN(C)CC5)c(O)c4c3C2=O)NC(=O)/C(C)=C\C=C\[C@H](C)[C@H](O)[C@@H](C)[C@@H](O)[C@@H](C)[C@H](OC(C)=O)[C@@H]1C [Rifampicin]
